# Measurements published in ChEMBL document CHEMBL2434956, “Investigating the selectivity of metalloenzyme inhibitors” (J Med Chem, 2013).
# Sequences of proteins named here, by UniProt entry; tags and fusion partners are left off.
# UniProt P02787, whole entry, looked up: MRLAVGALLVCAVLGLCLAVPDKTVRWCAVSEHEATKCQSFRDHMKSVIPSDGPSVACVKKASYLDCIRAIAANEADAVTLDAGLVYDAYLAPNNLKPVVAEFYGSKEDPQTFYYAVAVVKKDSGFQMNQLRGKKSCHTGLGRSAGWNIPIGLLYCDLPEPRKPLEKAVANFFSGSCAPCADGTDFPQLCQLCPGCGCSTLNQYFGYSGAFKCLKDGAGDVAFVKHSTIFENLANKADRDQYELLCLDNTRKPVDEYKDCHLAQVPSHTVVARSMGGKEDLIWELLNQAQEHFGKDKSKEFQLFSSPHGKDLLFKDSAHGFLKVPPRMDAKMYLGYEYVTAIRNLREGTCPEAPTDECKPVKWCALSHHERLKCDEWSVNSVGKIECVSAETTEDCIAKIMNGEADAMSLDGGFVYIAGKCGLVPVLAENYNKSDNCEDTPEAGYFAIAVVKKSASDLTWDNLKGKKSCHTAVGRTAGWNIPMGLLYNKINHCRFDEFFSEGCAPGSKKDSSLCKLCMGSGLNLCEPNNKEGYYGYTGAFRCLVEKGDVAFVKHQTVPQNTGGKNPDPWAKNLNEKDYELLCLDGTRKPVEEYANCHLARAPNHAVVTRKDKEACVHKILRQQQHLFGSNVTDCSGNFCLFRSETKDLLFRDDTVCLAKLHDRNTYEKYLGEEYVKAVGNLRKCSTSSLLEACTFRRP
# Biological target: Serotransferrin (Homo sapiens) (UniProt P02787)
# Test: Binding affinity to human holo-transferrin assessed as pseudo-first-order rate constant measured as removal of ferric ion at 1 mM measured for 1 hr by UV-vis spectrophotometric analysis
# Format: single protein
smiles,measurement,value
O=C(/C=C/c1ccc(Cl)cc1Cl)NO,K,0 ×10² /min
